# Patent EP1382597A2, “Steroid receptor modulator compounds and methods” (LIGAND PHARMACEUTICALS, INC., priority 1994, dated 1996)
# By UniProt entry, the sequences of proteins in these tests, tags left out. Where a name states a change or a piece, a line headed by the entry shows the natural chain unless it says otherwise.
# UniProt P10275: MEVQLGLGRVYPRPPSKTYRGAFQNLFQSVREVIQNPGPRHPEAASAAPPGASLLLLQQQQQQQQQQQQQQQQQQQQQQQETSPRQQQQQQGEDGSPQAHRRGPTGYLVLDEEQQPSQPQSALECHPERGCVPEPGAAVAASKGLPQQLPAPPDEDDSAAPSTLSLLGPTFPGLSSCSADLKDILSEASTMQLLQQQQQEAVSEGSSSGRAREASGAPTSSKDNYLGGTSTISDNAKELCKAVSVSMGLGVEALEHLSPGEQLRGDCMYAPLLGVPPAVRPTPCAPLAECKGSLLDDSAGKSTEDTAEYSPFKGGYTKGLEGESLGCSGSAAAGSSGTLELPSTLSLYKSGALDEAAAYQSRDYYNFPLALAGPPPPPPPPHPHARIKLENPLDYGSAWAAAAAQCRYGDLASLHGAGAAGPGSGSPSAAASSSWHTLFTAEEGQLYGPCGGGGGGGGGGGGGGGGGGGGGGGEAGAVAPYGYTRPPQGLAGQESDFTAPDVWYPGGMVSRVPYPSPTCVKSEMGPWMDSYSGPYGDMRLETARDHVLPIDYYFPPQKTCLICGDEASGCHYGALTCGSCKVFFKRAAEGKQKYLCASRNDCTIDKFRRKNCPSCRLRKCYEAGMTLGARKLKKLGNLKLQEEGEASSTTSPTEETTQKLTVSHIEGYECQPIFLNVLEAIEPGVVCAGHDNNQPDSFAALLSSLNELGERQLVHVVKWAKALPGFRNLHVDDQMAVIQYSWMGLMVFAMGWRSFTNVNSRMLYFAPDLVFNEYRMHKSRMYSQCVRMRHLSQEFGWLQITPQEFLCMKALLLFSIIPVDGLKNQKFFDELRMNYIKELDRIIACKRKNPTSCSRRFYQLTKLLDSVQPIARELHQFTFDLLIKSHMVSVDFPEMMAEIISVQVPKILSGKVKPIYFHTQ
# pIC50: −log10 of the molar value.
# Key:
# human PR-B = target: T1, human PR-B (Homo sapiens, UniProt P06401); assay: Co-transfection assay, PR antagonist activity; details: read-out: PR Antagonist CV-1 Cells Potency, antagonist potency = IC50, progesterone at its EC50;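 also: monkey kidney fibroblasts co-transfected with receptor expression plasmid and hormone-responsive luciferase reporter, antagonism read as reduced luciferase signal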
# T1 sequence (P06401 1-933): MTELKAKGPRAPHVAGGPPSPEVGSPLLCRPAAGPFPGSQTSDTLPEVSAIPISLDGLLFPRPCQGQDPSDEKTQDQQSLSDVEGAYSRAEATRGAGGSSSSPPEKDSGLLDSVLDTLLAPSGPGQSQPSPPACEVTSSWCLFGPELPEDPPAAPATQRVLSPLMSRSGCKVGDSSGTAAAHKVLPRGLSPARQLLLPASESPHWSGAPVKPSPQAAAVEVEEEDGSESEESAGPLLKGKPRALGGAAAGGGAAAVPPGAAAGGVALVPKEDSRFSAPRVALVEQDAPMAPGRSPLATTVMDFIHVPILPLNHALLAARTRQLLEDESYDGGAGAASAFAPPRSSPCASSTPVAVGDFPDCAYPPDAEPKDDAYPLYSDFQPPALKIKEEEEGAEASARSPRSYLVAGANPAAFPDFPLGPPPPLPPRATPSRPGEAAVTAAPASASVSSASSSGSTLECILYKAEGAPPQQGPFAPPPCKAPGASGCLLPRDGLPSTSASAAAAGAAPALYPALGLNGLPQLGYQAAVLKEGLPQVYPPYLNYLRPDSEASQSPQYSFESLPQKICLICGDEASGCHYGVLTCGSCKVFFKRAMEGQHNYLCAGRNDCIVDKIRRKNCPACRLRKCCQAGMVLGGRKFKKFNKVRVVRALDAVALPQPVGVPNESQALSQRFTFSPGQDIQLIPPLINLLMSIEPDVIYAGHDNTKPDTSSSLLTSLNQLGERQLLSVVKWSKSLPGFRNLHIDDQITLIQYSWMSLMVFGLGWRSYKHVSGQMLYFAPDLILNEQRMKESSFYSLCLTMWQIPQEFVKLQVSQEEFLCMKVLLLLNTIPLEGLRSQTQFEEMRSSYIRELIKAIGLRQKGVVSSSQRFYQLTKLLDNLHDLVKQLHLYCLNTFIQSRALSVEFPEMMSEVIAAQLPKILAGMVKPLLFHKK
# AR = target: T2, AR (Homo sapiens, UniProt P10275); assay: Co-transfection assay, AR antagonist activity; type: cell-based; details: Table 5 overall potency, read-out: AR Potency Antag
# T2 construct: expressed in transfected cells; host or cells: CV-1 cells, transient transfection
substance,measurement,setting,value
"8-Bromo-1,2-dihydro-2,2,4-trimethylindeno[1,2-g]quinoline [Compound 117]",pIC50,human PR-B,6.34
"8-Fluoro-1,2-dihydro-2,2,4-trimethylindeno[1,2-g]quinoline [Compound 124]",pIC50,AR,5.82
